Experimental data published in US20070009965A1, “Novel method for screening for GPCR agonists and/or antagonists from herbs” (Advanced Gene Technology, Corp., priority 2004, published 2007).

Sequences of proteins named here, by UniProt entry; tags and fusion partners are left off.
UniProt P41968, whole entry, species assumed: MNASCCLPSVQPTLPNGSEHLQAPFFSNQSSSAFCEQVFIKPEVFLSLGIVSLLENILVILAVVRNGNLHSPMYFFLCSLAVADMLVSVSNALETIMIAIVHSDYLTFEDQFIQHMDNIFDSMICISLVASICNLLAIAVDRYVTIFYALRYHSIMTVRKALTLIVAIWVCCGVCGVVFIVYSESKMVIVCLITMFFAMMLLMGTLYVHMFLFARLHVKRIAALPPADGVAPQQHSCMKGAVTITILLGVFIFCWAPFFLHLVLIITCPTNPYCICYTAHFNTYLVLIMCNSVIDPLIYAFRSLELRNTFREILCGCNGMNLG

Molecular target: MC3R (Homo sapiens, UniProt P41968)
Assay: herbal chip hybridization with MC3R and Cy3-anti-MC3R, fluorescence imaging
Format: binding
Conditions: at least 25 ng/ml NDP-MSH spotted on coated slide; at least 25 μg/ml MC3R; at least 5 μg/ml Cy3-anti-MC3R; laser scanner
Method: A coated plastic slide (1) having active epoxy groups on its surface was prepared in accordance with the method disclosed in the Paragraph entitled “Pretreatment of the Plastic Slide and Preparation of the Coated Plastic Slide” under the Example section of U.S. Pat. No. 6,645,719 B2.
In accordance with the teaching of the Paragraph entitled “Loading Samples onto the Coated Plastic Slide in Microarray Format” under the Example section of U.S. Pat. No. 6,645,719 B2, at least 25 ng/ml of α-melanocyte stimulating hormone (NDP-MSH, NH2-Ser-Thr-Ser-Nle-Glu-His-D-Phe-Arg-Trp-Gly-Lys-Pro-Val-OH), that can bind to melanocortin receptors (MCXR), i.e. representatives of GPCRs, were spotted onto the coated plastic slide (1) by Microarrayer BioGrid I (BioRobotic, Cambridge, UK), and then the resultant slide (2) was washed with a blocking buffer (0.1 M sodium borate and 0.1 M ethanolamine) for removing unbound proteins.
In a dark room, under room temperature, at least 25 μg/ml of MC3R, MC4R and MC5R were individually added to the slides (2), and the resultant slides (3) were allowed to stand for 1 hour for completing hybridization. The slides (3) were washed with 1× TBST buffer (50 mM Tris, pH 7.3, 0.15 M NaCl and 0.02% Tween 20) and Milli-Q water, and then dried in an incubator at 37° C. […]

Q: For “NH2-Ser-Thr-Ser-Nle-Glu-His-D-Phe-Arg-Trp-Gly-Lys-Pro-Val-OH [NDP-MSH]”, which “Mean of Fluorescence Intensity (M)” value is on record?
A: 97.00
